Test results: patent publication US20250114362A1, “METHODS AND COMPOSITIONS FOR TREATMENT OF CUTANEOUS PROLIFERATIVE DISORDERS AND OTHER SKIN CONDITIONS” (ASYMMETRIC THERAPEUTICS, LLC, priority 2022, published 2025)

Tested on: MatTek human PSE culture system (SOR-300-FT)
Test: MatTek human PSE culture system, tissue layer thickness and histology
Conditions: 100 nM Vitamin D

With Vitamin D the tissue integrity was “separation of a thinned dermis and the epidermis layers”.
